Target: T1, Polyunsaturated fatty acid lipoxygenase ALOX15 (Homo sapiens) (UniProt P16050)
T1 sequence (whole entry): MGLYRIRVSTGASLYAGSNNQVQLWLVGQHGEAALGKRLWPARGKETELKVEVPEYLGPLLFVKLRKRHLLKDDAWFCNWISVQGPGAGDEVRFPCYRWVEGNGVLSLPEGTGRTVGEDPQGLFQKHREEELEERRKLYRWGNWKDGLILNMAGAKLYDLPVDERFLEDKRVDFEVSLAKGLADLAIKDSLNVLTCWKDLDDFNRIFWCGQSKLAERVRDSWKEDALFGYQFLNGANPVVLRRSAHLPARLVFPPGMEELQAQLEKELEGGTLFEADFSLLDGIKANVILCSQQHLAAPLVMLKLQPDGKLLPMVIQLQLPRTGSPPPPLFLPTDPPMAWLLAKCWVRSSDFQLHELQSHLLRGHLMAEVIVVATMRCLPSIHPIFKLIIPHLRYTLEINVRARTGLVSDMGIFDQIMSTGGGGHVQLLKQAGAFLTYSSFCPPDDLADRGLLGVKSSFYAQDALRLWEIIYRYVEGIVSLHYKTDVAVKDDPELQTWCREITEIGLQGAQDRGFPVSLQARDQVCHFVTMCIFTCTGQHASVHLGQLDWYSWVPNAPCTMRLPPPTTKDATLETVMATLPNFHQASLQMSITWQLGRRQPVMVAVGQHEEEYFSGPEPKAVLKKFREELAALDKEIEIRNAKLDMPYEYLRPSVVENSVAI
Assay: Inhibition of recombinant N-terminal His6-tagged human reticulocyte 12/15-lipoxygenase using arachidonic acid as substrate at 25 uM by UV-vis spectrometric analysis relative to control
How it was run: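 His6-tagged human 12/15-LOX, Ni-NTA purified, at 40 nM in 25 mM HEPES pH 7.5 with 0.01% Triton X-100 and 10 μM arachidonic acid, in a stirred cuvette at 22 °C. Diene formation was followed at 234 nm, and percent inhibition at 25 μM inhibitor was calculated against the DMSO control rate.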

Imax: < 50%
SMILES: CN(C)c1oc(-c2cccc3ccccc23)nc1C#N

From ChEMBL document CHEMBL3259653, “Potent and selective inhibitors of human reticulocyte 12/15-lipoxygenase as anti-stroke therapies” (J Med Chem, 2014)
